Measured values: patent US10336701B2, “Pyridin-2-one derivatives of formula (II) useful as EP3 receptor antagonists” (Janssen Pharmaceutica NV, priority 2017, dated 2019)

Chains of the proteins cited; added tags and fusions are not shown.
UniProt P43115, whole entry: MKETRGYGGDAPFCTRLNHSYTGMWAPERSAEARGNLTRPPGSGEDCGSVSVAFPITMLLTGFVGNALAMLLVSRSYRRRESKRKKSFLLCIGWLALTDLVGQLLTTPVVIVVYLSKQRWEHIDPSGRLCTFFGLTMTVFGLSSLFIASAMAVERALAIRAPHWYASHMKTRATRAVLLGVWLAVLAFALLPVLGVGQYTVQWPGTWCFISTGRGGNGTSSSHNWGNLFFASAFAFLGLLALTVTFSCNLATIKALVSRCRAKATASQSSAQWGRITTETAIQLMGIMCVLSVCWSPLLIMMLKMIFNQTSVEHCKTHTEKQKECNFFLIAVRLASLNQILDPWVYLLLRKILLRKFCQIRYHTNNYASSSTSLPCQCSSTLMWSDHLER

Target: EP3 receptor (Homo sapiens, UniProt P43115)
Assay: [3H]-PGE2 binding assay (EP3 competition binding)
Settings: read-out: [3H]-PGE2 Binding Ki; tested form: TFA

CCn1ncc2c(F)cc(-c3ccc(C4CC5CN(C(=NC#N)NC(C)C)CC5C4)c(=O)[nH]3)cc21 (stereo not shown)
Ki: 42 nM
